# Measured affinities in a library of Ab-91 heavy chain variants

From the AlphaSeq antibody data of Engelhart et al. 2022 (doi:10.1038/s41597-022-01779-4), copy in the FLAb collection.

Target: peptide PDVDLGDISGINAS, taken from heptad repeat 2 (HR2) of SARS-CoV-2 spike.

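Phage display of a naive human antibody library on the peptide gave the parent. Variants in AAYL51 differ from the parent at up to three CDR positions; double and triple changes were sampled at random. The scFvs were displayed on barcoded MATa yeast, the peptide on MATalpha yeast. Pairs that bind mate more often; barcode pairs of the diploids are counted by sequencing. Read counts were normalised to the haploid input and turned into Kd by a linear fit to BCL2-family pairs of known affinity, for each replicate. Mating was done three times.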

Parent scFv Ab-91: VL joined to VH by a 15-residue (Gly4Ser)3 linker. Changes lie in the heavy chain CDRs alone.
VL: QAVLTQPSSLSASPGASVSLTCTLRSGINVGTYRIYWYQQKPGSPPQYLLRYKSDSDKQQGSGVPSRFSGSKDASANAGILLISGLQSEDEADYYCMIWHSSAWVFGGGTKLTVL
VH: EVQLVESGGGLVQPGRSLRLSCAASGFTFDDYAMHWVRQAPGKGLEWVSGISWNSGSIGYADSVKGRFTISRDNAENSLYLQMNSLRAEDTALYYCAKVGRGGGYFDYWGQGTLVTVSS

Sequences are complete VH domains. Numbers give log10(Kd / nM), so 0 is 1 nM and 3 is 1 µM. Smaller is tighter. The mean shown is taken over the replicates in which the pair was detected. "ND" means that the variant was in the library but no mating with the target was seen in that replicate; the authors take this as a sign of poor binding, and no number exists.

VH | log10 Kd, replicates | mean log10 Kd (nM) | signal with controls
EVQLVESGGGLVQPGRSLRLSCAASGTTFDCYAMHWVRQAPGKGLEWVSGISWNSGSVGYADSVKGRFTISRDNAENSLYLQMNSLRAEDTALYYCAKVGRGGGYFDYWGQGTLVTVSS | 4.96 / 4.76 / ND | 4.86 | 2/9 (4.22)
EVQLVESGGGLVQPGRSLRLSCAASGFTFDDYAMHWVRQAPGKGLEWVSGISWNSGGIGYADVVKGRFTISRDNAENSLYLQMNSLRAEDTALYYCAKVGRGGGYFDYWGQGTLVTVSS | ND / ND / ND | ND | 0/9
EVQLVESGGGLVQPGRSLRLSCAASMFTFDDYAMHWVRQAPGKGLEWVSGISWNSGSIGYADSVAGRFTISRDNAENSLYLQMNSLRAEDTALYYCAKVGRGGGYFDYWGQGTLVTVSS | ND / 5.47 / ND | 5.47 | 1/9 (3.64)
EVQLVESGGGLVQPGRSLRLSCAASGFTFWDYAMHWVRQAPGKGLEWVSGISWNSGSIGYADSVKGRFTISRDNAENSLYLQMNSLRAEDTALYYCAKVGHGGGYFDYWGQGTLVTVSS | 2.66 / 3.04 / 2.43 | 2.71 | 4/9 (3.87)
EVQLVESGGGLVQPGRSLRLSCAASGFTFDDYAMHWVRQAPGKGLEWVSGISWNSGTIGYADSVKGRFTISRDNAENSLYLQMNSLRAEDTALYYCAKVGRGGGYGDCWGQGTLVTVSS | ND / ND / ND | ND | 0/9
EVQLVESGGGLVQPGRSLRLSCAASGFTFRDYAMHWVRQAPGKGLEWVSGISWNSGSIGYADSVKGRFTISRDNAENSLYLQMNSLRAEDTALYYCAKVGRGGGYCFYWGQGTLVTVSS | 1.20 / 0.83 / 0.36 | 0.80 | 3/9 (4.79)
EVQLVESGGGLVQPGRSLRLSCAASGFTFDDYAMLWVRQAPGKGLEWVSGASWNSGSIGFADSVKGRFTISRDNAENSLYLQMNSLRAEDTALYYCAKVGRGGGYFDYWGQGTLVTVSS | ND / ND / 4.76 | 4.76 | 1/9 (4.14)
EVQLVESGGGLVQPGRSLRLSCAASGFTFDDYAMHWVRQAPGKGLEWVSGISWNSGSIGYADSVKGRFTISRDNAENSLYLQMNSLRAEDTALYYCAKVGRVAGYFDYWGQGTLVTVSS | 4.27 / ND / ND | 4.27 | 3/9 (4.92)
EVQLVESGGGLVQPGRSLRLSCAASGFTFDDYAMHWVRQAPGKGLEWVSGISWNSGSIGYADGVKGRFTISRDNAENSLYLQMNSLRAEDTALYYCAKDGRGGGYFDCWGQGTLVTVSS | ND / ND / 4.45 | 4.45 | 1/9 (5.68)
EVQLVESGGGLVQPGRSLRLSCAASGFTFDDYAMHWVRQAPGKGLEWVSGISWNSGSYGGADSVKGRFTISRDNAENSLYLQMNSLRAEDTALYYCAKVGRRGGYFDYWGQGTLVTVSS | ND / ND / ND | ND | 1/9 (3.59)
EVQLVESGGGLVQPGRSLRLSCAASGFTFDDYCMHWVRQAPGKGLEWVSGISWNSGSIGYADSVKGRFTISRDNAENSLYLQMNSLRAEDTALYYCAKVGRGGGYSKYWGQGTLVTVSS | ND / ND / ND | ND | 0/9
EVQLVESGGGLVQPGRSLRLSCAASGFTFDDYAMHWVRQAPGKGLEWVSGISWNSGVIGYADSVKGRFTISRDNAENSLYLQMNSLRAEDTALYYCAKVGPGGGYFDYWGQGTLVTVSS | ND / 6.10 / ND | 6.10 | 2/9 (4.49)
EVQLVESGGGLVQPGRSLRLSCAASGFTFDDYAMHWVRQAPGKGLEWVSGIHWNSGSIGYADEVKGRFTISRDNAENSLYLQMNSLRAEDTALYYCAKGGRGGGYFDYWGQGTLVTVSS | 4.42 / ND / 4.82 | 4.62 | 1/9 (3.09)
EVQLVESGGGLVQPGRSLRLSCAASGFAFDDYAMHWVRQAPGKGLEWVSGISWNSWSIGYADSVKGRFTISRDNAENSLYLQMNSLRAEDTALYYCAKVGRGGGYYDYWGQGTLVTVSS | 1.75 / 1.72 / 1.78 | 1.75 | 2/9 (4.76)

Three control strains display no target. For library AAYL51, 21% of the pairings with them gave a signal, with a median of 4.54 and one signal in twenty below 3.26, so weak values seen in few replicates may be background. Also given: how often the same scFv was detected with the empty control strains, with their mean in brackets. For reference, the parent read 1.86 as the reference entry and 0.88 as a member of this library.